Literature values in article PMC10788894 (Journal of Medicinal Chemistry, 2023).

System: SOS1 over SOS2
Conditions: reported

SMILES	selectivity for SOS1 over SOS2
CNCc1ccccc1-c1csc([C@@H](C)Nc2nc(C)nc3cc(OC)c(OC)cc23)c1 [BAY-293]	highly selective for SOS1 over SOS2
Cc1c(C#N)cccc1[C@@H](C)Nc1nnc(C)c2cnc(N3CCOCC3)cc12 [MRTX0902]	highly selective for SOS1 over SOS2
